Key:
[1] = biological target: T1, Prostaglandin G/H synthase 2 (Mus musculus, UniProt Q05769); assay: COX Enzyme Inhibition Assay (Table 1)
T1 sequence (Q05769 whole entry): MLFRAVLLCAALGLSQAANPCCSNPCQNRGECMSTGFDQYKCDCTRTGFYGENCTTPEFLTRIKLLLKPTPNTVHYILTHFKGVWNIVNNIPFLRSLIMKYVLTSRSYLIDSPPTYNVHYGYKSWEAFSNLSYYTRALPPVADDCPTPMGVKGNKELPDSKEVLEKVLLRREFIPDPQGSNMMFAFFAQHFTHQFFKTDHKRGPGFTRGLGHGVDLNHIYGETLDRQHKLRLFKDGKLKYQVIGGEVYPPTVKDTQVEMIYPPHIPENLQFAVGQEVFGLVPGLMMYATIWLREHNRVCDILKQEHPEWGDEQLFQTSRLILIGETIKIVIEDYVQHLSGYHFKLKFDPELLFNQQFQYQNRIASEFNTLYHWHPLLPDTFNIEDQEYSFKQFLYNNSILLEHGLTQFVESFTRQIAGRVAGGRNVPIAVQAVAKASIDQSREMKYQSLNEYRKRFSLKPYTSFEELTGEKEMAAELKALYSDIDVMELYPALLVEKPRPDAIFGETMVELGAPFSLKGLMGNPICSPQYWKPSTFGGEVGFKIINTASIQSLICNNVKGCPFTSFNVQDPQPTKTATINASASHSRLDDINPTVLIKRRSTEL
Protocol: Each molecule was evaluated for its ability to inhibit purified mouse COX-2 or ovine COX-1 using a previously described assay. [Kalgutkar et al, J. Med. Chem., 43:2860-2870]

Protein sequences, listed by entry. Tags and fused reporters are not part of them. Residues count along the entry.
UniProt Q05769, 18-604 S516A: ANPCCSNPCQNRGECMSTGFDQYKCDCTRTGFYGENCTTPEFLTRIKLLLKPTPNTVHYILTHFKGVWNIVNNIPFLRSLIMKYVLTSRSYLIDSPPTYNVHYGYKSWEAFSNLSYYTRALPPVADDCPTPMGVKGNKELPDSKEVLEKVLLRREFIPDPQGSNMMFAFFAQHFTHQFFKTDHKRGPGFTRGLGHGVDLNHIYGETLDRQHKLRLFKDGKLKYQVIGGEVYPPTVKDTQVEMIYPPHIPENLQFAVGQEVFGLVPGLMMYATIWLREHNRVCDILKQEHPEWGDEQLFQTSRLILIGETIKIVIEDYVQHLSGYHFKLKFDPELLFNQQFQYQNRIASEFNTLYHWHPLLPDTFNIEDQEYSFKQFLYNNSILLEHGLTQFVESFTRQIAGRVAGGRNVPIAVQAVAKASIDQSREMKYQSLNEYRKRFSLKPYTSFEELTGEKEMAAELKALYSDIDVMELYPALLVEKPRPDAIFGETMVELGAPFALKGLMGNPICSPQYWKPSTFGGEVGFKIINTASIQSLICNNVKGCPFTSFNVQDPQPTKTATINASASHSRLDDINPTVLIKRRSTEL
UniProt Q05769, 18-604 V509I: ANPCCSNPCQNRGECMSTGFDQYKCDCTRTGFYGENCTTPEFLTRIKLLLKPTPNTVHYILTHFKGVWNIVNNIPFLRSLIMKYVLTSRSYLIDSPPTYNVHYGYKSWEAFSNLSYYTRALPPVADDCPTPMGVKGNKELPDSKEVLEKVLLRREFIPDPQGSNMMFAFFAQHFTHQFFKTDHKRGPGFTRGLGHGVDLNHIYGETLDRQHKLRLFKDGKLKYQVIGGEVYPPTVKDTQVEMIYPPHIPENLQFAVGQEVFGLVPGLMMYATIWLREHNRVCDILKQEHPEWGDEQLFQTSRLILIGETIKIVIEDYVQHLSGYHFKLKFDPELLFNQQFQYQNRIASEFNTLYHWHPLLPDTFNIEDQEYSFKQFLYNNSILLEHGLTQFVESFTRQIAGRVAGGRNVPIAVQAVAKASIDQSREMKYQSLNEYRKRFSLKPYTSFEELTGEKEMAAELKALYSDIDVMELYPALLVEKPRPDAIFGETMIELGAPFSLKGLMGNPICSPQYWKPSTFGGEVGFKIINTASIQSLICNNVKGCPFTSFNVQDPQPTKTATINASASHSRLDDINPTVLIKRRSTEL

[2] = biological target: Prostaglandin G/H synthase 2 [18-604,S516A] (Mus musculus, UniProt Q05769, S516A)
[3] = biological target: T1, Prostaglandin G/H synthase 2
[4] = biological target: Prostaglandin G/H synthase 2 [18-604,V509I] (Mus musculus, UniProt Q05769, V509I)

| SMILES | IC50 [1] [nM] | IC50 [2] [nM] | IC50 [3] [nM] | IC50 [4] [nM] |
| --- | --- | --- | --- | --- |
| COc1ccc2c(c1)c(CC(=O)NCCOC(=O)CCC(=O)O[C@@H]1c3cc4c(cc3[C@H](c3cc(OC)c(OC)c(OC)c3)[C@@H]3C(=O)OCC13)OCO4)c(C)n2C(=O)c1ccc(Cl)cc1 (stereo not given in full) [Cytotoxic conjugates, 13] | 250 |  |  |  |
| COc1ccc2c(c1)c(CC(=O)NCCCCNC(=O)CCC(=O)O[C@@H]1c3cc4c(cc3[C@H](c3cc(OC)c(OC)c(OC)c3)[C@@H]3C(=O)OC[C@H]31)OCO4)c(C)n2C(=O)c1ccc(Cl)cc1 [N-{(Succinylpodophyllotoxinyl)but-4-yl}-2-{1-(4-chlorobenzoyl)-5-methoxy-2-methyl-1H-indol-3-yl}acetamide] | 290 | 1500 | 290 | 1100 |

From BindingDB's records for doi:10.1021/acschembio.6b00560 (Vanderbilt Institute of Chemical Biology, Vanderbilt …, 2016)
